For one molecule, IC50 results are on record in ChEMBL document CHEMBL4184196, “Design, synthesis, and evaluation of polyamine-memantine hybrids as NMDA channel blockers” (Bioorg Med Chem, 2018).

Amino acid sequences for entries named in this document (tags omitted).
UniProt Q00960, whole entry: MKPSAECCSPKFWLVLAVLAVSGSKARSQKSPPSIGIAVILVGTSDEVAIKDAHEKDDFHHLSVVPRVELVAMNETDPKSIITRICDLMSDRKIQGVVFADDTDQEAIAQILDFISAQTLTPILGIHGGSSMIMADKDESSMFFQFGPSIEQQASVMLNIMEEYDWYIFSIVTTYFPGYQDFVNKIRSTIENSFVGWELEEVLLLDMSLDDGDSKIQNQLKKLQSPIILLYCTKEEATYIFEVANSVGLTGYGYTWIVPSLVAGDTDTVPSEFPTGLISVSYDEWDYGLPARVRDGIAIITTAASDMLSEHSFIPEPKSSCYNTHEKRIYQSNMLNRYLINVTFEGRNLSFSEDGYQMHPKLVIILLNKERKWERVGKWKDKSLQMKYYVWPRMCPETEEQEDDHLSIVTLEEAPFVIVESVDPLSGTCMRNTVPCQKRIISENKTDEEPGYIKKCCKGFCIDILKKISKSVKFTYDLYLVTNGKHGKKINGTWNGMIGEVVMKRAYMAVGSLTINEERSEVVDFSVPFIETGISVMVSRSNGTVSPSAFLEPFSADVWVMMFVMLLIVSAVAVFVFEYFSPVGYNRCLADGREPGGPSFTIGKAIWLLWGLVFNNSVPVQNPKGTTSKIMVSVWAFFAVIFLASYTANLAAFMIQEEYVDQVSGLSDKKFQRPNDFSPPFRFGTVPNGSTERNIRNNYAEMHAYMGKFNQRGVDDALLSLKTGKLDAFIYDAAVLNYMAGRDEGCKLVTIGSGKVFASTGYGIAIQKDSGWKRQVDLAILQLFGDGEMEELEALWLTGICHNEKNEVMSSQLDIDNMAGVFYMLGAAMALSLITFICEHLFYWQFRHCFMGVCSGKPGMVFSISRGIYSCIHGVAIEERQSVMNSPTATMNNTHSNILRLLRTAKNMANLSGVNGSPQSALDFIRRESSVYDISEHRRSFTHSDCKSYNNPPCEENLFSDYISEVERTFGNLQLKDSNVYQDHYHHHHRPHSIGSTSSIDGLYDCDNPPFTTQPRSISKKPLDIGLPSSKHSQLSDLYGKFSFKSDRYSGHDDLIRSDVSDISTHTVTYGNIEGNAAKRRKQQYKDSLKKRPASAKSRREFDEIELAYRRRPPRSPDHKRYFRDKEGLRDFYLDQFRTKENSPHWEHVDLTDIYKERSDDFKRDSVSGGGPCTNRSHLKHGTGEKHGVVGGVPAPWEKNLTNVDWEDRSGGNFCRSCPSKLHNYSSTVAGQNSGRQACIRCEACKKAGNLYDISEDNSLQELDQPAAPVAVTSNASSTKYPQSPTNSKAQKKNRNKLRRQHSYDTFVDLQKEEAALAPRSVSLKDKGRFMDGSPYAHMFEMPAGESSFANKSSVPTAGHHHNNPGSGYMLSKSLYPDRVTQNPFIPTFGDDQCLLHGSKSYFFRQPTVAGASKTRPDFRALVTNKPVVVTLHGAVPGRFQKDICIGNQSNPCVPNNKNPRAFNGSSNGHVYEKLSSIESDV

For this assay, the target named is Glutamate NMDA receptor; Grin1/Grin2b (Rattus norvegicus, UniProt P35439+Q00960). As to the kind of experiment: Antagonist activity at rat brain GluN1/GluN2B receptor expressed in Xenopus laevis oocytes assessed as inhibition of glutamate/glycine-induced channel current by two electrode voltage clamp method. Type of assay: cell-based. On the technique in general: In two-electrode clamp one electrode senses voltage and the other passes current.

One may read the IC50 as the midpoint of a concentration-inhibition curve.

Structures can show the parent of a compound that is named as a salt.

For the molecule `CC12CC3CC(C)(C1)CC(N)(C3)C2` [MEMANTINE HYDROCHLORIDE], the IC50 was found to be 2.1 µM.
